The chains behind the UniProt entries cited, without tags or fusion partners. Residues count along the entry.
UniProt Q9Y5Z0, 63-518 limits assumed: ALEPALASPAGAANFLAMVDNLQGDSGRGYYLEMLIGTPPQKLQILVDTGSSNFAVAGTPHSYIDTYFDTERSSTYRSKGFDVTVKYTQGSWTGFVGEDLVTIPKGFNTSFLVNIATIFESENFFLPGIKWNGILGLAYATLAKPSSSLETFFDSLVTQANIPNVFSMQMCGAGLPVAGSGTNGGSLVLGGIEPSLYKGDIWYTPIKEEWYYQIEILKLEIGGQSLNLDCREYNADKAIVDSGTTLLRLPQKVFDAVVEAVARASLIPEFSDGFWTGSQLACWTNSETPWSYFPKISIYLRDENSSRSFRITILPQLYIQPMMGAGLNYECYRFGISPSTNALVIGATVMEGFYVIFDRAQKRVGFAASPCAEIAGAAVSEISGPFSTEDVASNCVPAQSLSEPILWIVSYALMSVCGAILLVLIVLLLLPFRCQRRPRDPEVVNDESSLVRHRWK
UniProt P56817, 46-501 limits assumed: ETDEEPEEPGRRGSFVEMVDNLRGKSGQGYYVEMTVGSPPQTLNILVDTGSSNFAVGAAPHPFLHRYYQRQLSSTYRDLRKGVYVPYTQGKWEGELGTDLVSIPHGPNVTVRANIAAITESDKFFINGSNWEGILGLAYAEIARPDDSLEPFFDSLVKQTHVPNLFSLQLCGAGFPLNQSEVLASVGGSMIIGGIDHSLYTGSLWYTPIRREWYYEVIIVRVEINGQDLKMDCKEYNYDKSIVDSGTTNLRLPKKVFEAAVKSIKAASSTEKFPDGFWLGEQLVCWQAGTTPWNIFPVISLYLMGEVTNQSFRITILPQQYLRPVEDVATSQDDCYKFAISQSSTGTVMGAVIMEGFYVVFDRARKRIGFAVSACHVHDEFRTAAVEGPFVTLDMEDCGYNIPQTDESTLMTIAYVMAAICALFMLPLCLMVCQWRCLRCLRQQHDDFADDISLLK

According to patent US20200010482A1, “INHIBITORS OF BETA SECRETASE” (Janssen Pharmaceutica NV, priority 2017, published 2020):

Assays:
BACE2 = BACE2 (Homo sapiens, UniProt Q9Y5Z0); test: BACE2 biochemical FRET based assay; conditions: recombinant BACE2 0.4 μg/ml, 10 μM substrate, 450 min, pH 5.0
Text: This assay is a Fluorescence Resonance Energy Transfer Assay (FRET) based assay. The substrate for this assay contains the ‘Swedish’ Lys-Met/Asn-Leu mutation of the amyloid precursor protein (APP) beta-secretase cleavage site. This substrate also contains two fluorophores: (7-methoxycoumarin-4-yl) acetic acid (Mca) is a fluorescent donor with excitation wavelength at 320 nm and emission at 405 nm and 2,4-Dinitrophenyl (Dnp) is a proprietary quencher acceptor. […] Upon cleavage by the beta-secretase, the fluorophore Mca is separated from the quenching group Dnp, restoring the full fluorescence yield of the donor. The increase in fluorescence is linearly related to the rate of proteolysis.
Briefly in a 384-well format recombinant BACE2 protein in a final concentration of 0.4 μg/ml is incubated for 450 minutes at room temperature with 10 μM substrate in incubation buffer (50 mM Citrate buffer pH 5.0, 0.05% PEG, no DMSO) in the absence or presence of compound. Next the amount of proteolysis is directly measured by fluorescence measurement at T=0 and T=450 (excitation at 320 nm and emission at 405 nm). Results are expressed in RFU (Relative Fluorescence Units), as difference between T450 and TO.
A best-fit curve is fitted by a minimum sum of squares method to the plot of % Controlmin versus compound concentration. From this an IC50 value (inhibitory concentration causing 50% inhibition of activity) can be obtained. • LC=Median of the low control values=Low control: Reaction without enzyme • HC=Median of the High control values=High Control: Reaction with enzyme
% Effect=100−[(sample−LC)/(HC−LC)*100]
% Control=(sample/HC)*100
% Controlmin=(sample−LC)/(HC−LC)*100

β-secretase I (BACE1) = β-secretase I (BACE1) (Homo sapiens, UniProt P56817); test: Biochemical assay, automated (CyclOps), BACE1; conditions: automated CyclOps bioassay
Experimental: Unless otherwise indicated all biochemicals were purchased from Sigma-Aldrich Chemical Company, Poole, Dorset, U.K. and non-aqueous solvents, of analytical or higher grade, were purchased from ThermoFisher Scientific, Loughborough, U.K. MilliQ water (Elix 5 & MilliQ Gradient; Merck Millipore) was used as the base aqueous solvent to make up the biological buffers. Base assay buffer was prepared by adding a 50 mM solution of citric acid (1.00244; Merck Biosciences) to stirring solution of 50 mM trisodium citrate (1.06448; Merck Biosciences) until a final pH of 5.0 was achieved. […] All assays were routinely carried out in 384-well assay plates (Costar 4514; Corning Life Sciences) and incubated at 37±1° C. for 60 min. prior to reading the endpoint fluorescence intensity. The (7-methoxyl coumarin-4-yl)acetic acid based substrate β-secretase substrate VI (M2465; Bachem) was prepared as a 1 mM stock in 100% DMSO (D/4121/PB08; ThermoFisher). Assay buffer was prepared by adding DMSO to base buffer to a final concentration of 1% (vol./vol.). β-secretase I (18.64 μM; “BACE1”) and β-secretase II (4.65 μM; “BACE2”) were obtained from Janssen Pharmaceutica, Beerse, Belgium and were stored as frozen aliquots (˜20 μl) and thawed as required.
Typically 12.5 μl of assay buffer was dispensed to rows B to P of the assay plate. To row A was added 18.75 μl of test compound diluted appropriately in assay buffer. A 6.25 μl aliquot of sample was transferred from row A to row B and the sample mixed three times by pipette. The process was repeated down the plate and 6.25 μl of solution discarded at row N post-mix. Rows O and P were designated as the positive and negative controls. To row P was added 6.25 μl base buffer. To rows A to O was added 6.25 μl enzyme (freshly prepared 40 nM BACE1 or 40 nM BACE2) diluted in base buffer. To initiate the assay 6.25 μl of freshly prepared 80 μM substrate, made up by diluting the 1 mM in 100% DMSO solution into HPLC grade water (Optima W6-212; ThermoFisher), was added to all the wells. The assay plate was covered and incubated at 37±1° C. for 60 min. The fluorescence intensity of the wells was read at 360/405 nm (excitation/emission) utilising a nine reads per well protocol (50 ms integration; density of 3, 0.25 mm spacing; SpectraMAX Paradigm plate reader; TUNE cartridge; SoftMax Pro v 6.3 software; Molecular Devices UK Ltd., Wokingham, Berkshire, UK) and outputting the median value of the nine reads as a text file. Data analysis was carried out using Prism software v 6.3 (GraphPad Inc., San Diego, Calif., USA) using the non-linear regression analysis models supplied by the vendor. For IC50 determinations the four parameter logistic variable slope model was used to fit the raw fluorescence intensity data with the ‘bottom’ fixed to the negative control.
The CyclOps bioassay module consisted of a fraction collection station, a reagent station, liquid handling robotics, plate store and an integrated plate reader (SpectraMAX Paradigm, TUNE cartridge, SoftMax Pro v 6.3; Molecular Devices). The fraction collection station composed of a 384 well collection plate (P-384-240SQ-C; Axygen, Union City, Calif., USA) mounted on a H-portal carriage (Festo AG & Co. KG, Esslingen, Germany), a syringe drive and a two-way six port injection valve fitted with a 200 μl loop (VICI AG International, Schenkon Switzerland). The output of the injection valve was addressable to all the positions of a 384 well collection plate. The reagent station consisted of hydraulically cooled (10-12° C.) aluminium segments; each manufactured to house a SBS microtiter plate footprint. Independent addressable reagent stations were housed within these sections. Where required, custom aluminium housings were used to accommodate standard laboratory plastic ware (e.g. Eppendorf tubes, Falcon tubes, etc.). As and when required the reagent reservoirs were covered and the lids contained holes through which the Teflon-coated probe could access solutions. […]

| SMILES | BIOCHEMICAL FRET BASED ASSAY pIC50 (BACE2) | AUTOMATED ASSAY BACE1 pIC50 (β-secretase I (BACE1)) | BIOCHEMICAL FRET BASED ASSAY pIC50 (BACE2; tested form: formate) | BIOCHEMICAL FRET BASED ASSAY pIC50 (BACE2; tested form: free base) | AUTOMATED ASSAY BACE1 pIC50 (β-secretase I (BACE1); tested form: free base) |
| --- | --- | --- | --- | --- | --- |
| COc1ncc(-c2c(C)noc2C)c2c1C[C@]1(c3ccc(F)cc3F)N=C(N)SC[C@@H]1C2 | 5.76 | 7.795 |  |  |  |
| COc1ccccc1-c1cnc(OC)c2c1C[C@H]1CSC(N)=N[C@@]1(c1ccc(F)cc1F)C2 | 6.3 | 7.24 |  |  |  |
| COc1ncc(-c2ccc(F)cc2C)c2c1C[C@]1(c3cc(OCC4CCOCC4)ccc3F)N=C(N)SC[C@@H]1C2 |  | 8.26 | 6.48 |  |  |
| COc1ncc(-c2cc(C)nc3c2CCCC3)c2c1C[C@]1(c3ccc(F)cc3F)N=C(N)SC[C@@H]1C2 | <5 | 5.87 |  |  |  |
| COc1ncc(-c2c(C)noc2C)c2c1C[C@]1(c3cc(OCC4CC4)ccc3F)N=C(N)SC[C@@H]1C2 |  | 7.72 | 5.69 |  |  |
| COc1ccc(F)c(-c2cnc(OC)c3c2C[C@H]2CSC(N)=N[C@@]2(c2ccc(F)cc2F)C3)c1 |  |  |  | 7.45 | 7.5 |
| COc1ncc(-c2c(C)noc2C)c2c1C[C@]1(c3cc(OCc4ncccn4)ccc3F)N=C(N)SC[C@@H]1C2 |  | 7.77 | 6.65 |  |  |
| COc1ncc(-c2c(C)noc2C)c2c1C[C@]1(c3cc(OCC4CCOCC4)ccc3F)N=C(N)SC[C@@H]1C2 |  | 7.07 | 5.2 |  |  |
